BindingDB's records for doi:10.1021/jm00107a020 (Pfizer, 1991)

Tests used:
[1] = molecular target: T1, Aldo-keto reductase family 1 member A1 (Sus scrofa, UniProt P50578); test: Inhibitory activity was measured against pig kidney aldehyde reductase in the presence of 1 uM compound with 3-pyridine carboxaldehyde as substrates
T1 sequence (P50578 whole entry): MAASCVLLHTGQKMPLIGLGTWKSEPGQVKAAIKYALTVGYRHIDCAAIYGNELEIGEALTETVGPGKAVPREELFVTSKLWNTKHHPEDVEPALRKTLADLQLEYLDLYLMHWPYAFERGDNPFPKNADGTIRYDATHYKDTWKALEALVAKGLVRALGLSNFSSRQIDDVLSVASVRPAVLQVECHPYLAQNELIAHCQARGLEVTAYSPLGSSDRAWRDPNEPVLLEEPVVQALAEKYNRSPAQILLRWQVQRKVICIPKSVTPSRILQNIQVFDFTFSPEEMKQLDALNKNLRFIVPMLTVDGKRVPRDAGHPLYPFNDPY

[2] = molecular target: Aldo-keto reductase family 1 member B1 (Rattus norvegicus) (UniProt P07943); test: Inhibitory activity was measured against rat lens aldose reductase in the presence of 1 uM compound with DL-glyceraldehyde as substrates

IC50 [1]: 35.4 µM | IC50 [2]: 840 nM
SMILES: CCOC(=O)C1CN(Cc2ccccc2)C(=O)C1=O (configuration not stated)
